# Measurements published in patent US20250314586A1.
# Sequences of proteins named here, by UniProt entry; tags and fusion partners are left off.
# UniProt P03372, whole entry: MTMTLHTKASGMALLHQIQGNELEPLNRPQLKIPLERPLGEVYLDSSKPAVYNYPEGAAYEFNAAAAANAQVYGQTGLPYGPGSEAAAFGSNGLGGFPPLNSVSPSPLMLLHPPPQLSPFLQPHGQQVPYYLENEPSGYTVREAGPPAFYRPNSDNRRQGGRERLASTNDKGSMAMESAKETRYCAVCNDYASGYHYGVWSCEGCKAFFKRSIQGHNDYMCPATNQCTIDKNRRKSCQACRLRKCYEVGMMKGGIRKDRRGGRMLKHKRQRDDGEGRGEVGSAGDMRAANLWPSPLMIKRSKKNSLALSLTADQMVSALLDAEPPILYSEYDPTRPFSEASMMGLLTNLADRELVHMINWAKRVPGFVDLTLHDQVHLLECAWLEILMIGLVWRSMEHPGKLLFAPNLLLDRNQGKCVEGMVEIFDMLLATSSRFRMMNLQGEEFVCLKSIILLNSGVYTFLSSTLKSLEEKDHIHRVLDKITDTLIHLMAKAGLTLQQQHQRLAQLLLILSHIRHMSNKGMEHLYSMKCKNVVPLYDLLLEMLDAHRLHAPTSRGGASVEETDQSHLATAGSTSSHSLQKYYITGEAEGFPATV
# How the values were obtained:
# Estrogen Receptor (ER) = target: T1, Estrogen Receptor (ER) (Homo sapiens, UniProt P03372); experiment: residence time imaging of ER-Halo (track length survival); assay type: cell-based; settings: track length distribution, compared with DMSO or other ER modulators
# T1 construct: expressed in transfected cells; host or cells: U2OS
# [1] = target: T2, progesterone receptor (PR) (Homo sapiens, UniProt P06401); experiment: htSMT of Halo-PR in U2OS cells; assay type: cell-based; settings: 1 μM antagonist, absence or presence of cognate agonist
# T2 construct: expressed in transfected cells; host or cells: U2OS
# T2 sequence (P06401 1-933): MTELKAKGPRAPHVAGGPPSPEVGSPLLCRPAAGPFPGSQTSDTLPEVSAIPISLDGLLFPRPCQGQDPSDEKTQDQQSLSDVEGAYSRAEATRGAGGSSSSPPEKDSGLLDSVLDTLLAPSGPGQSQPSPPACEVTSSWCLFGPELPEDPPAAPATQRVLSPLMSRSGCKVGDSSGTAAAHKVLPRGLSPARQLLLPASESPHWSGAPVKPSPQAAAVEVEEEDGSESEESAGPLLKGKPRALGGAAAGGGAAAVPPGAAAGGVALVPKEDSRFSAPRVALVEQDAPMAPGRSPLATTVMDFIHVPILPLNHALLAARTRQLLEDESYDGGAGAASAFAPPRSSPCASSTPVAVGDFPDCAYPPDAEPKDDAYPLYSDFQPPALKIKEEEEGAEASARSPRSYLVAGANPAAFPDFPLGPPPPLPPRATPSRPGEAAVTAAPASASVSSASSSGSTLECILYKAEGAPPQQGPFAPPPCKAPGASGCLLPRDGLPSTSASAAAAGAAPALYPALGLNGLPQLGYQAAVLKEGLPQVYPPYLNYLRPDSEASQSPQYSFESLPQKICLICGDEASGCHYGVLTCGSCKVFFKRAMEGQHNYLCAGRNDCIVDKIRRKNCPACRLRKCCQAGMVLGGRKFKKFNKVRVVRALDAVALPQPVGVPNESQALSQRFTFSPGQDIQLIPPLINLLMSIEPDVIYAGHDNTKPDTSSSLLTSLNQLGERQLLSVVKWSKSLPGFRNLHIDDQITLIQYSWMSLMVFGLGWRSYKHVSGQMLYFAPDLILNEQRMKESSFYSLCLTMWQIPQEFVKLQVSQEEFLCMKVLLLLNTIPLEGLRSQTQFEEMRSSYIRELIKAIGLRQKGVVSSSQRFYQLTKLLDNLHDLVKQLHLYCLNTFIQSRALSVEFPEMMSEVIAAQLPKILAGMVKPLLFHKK
SMILES,relative ER residence (binding) times (Estrogen Receptor (ER)),effect on PR chromatin binding (fbound) [1]
C[C@]12CC[C@@H]3c4ccc(O)cc4C[C@@H](CCCCCCCCC[S+]([O-])CCCC(F)(F)C(F)(F)F)[C@H]3[C@@H]1CC[C@@H]2O (some centres unmarked),longer binding times,–
CC#C[C@]1(O)CC[C@H]2[C@@H]3CCC4=CC(=O)CCC4=C3[C@@H](c3ccc(N(C)C)cc3)C[C@@]21C [mifepristone],–,behaves similarly to ER antagonists
